# scFv variants of Ab-14 (light chain) against a SARS-CoV-2 spike peptide

Values reported by Li et al. 2023, doi:10.1038/s41467-023-39022-2 (FLAb copy).

Binding partner: SARS-CoV-2 spike HR2 peptide, sequence PDVDLGDISGINAS.

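These sequences belong to a second round, designed from the earlier measurements on random variants of the parent. Their group label is 14L_GP_HC (GP: Gaussian process model; HC: hill climbing; a sequence that several methods proposed may carry one label only). Affinity was read by AlphaSeq, a pooled yeast mating assay with surface-displayed partners. Mating (16 h, 30 °C) was followed by selection of diploids and sequencing of their barcodes. The ratio of observed to expected reads was calibrated, replicate by replicate, on BCL2-family standards whose Kd was known from biolayer interferometry. The assay was run in six technical replicates.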

Ab-14 is the parent antibody, in scFv form: VH, then the linker GGGGSGGGGSGGGGS, then VL. The heavy chain is unchanged in all variants.
VH: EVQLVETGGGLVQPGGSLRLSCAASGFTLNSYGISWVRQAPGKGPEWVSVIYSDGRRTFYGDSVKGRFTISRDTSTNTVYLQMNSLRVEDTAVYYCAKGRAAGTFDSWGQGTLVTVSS
VL: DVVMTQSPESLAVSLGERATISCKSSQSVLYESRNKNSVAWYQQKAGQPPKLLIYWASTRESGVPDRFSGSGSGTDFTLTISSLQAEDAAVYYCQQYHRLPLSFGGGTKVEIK

Positions count from residue 1 of the parent VL; S25F puts F in place of S.
The read-out is the apparent dissociation constant on a log10 scale (nM): the lower, the stronger.
"n.d." means that the variant was in the library but no mating with the target was seen in that replicate; the authors take this as a sign of poor binding, and no number exists.
The parent sequence was in this pool as ten entries: three were never detected, three once, and four in most replicates, with averages from 0.34 to 2.37.
The authors' rule: three or more of the six replicates give a measured affinity, fewer mean a poor binder.
Background: pairings of all light chain designs with three empty control strains gave a value in 4% of cases (median 2.64, 5th percentile 1.59). Values in that range, when seen in few replicates, are hard to tell from nonspecific mating. For each scFv, signals with the empty controls are counted beside the result, with their mean in brackets.
Values of this round are not directly comparable with the first-round values of the same sequences.

| changes | log10 Kd, replicates | empty controls |
|---|---|---|
| S25F N35D W56N Q96W | 1.51 2.15 1.52 n.d. 2.40 2.37 | 0/18 |
| S25L V29E E32D W56N | 0.64 0.35 0.17 0.27 0.20 0.60 | 0/18 |
| V29D W56G T59S | -0.06 -0.12 -0.24 -0.19 -0.01 -0.03 | 1/18 (3.62) |
| S25V V29W Y31M W56E E61I | 0.60 0.48 0.36 0.14 0.22 0.17 | 1/18 (1.98) |
| S25L S26M W56H T59L S62D S103W | 0.53 0.34 -0.02 0.18 0.11 0.69 | 0/18 |
| S25V N35L W56N Y97M | n.d. n.d. n.d. n.d. n.d. n.d. | 0/18 |
| Q27I V29Y S33E W56A | 0.37 0.14 -0.07 -0.13 0.05 0.01 | 2/18 (3.00) |
| Q27I V29Y K36H W56E | 0.47 0.06 0.19 0.21 0.30 0.23 | 1/18 (3.17) |
| Q27C R34E W56E T59Q | 1.17 0.34 1.22 0.76 0.53 1.38 | 0/18 |
| K24Q V29W W56G | -0.26 -0.52 -0.53 -0.69 -0.46 -0.33 | 1/18 (3.17) |
| Q27I V29Y R34M W56A A57G | 0.47 0.43 0.35 0.43 0.54 0.49 | 2/18 (3.14) |
| S25L S26R V29T K36P W56K | 1.00 1.66 0.50 1.19 0.72 1.08 | 1/18 (2.97) |
| K24H S25W Q27P K36G W56N | 0.56 0.21 0.09 0.44 0.31 0.71 | 0/18 |
| S25E S26F Y31F W56D | 0.57 -0.72 -0.71 -1.05 -1.00 -0.36 | 0/18 |
| V29Q R34V W56D | 0.43 0.45 0.24 0.43 0.47 0.54 | 0/18 |
| S25Y S26Y Q27P V29E W56Q R99L | -0.05 -0.08 -0.27 -0.30 -0.09 0.04 | 0/18 |
| V29Y R34G W56D | -0.04 -0.01 0.05 -0.21 -0.16 0.09 | 2/18 (2.55) |
| S25L S26V Q27N V29T N35Q W56Y | 1.41 1.10 n.d. 1.86 1.60 1.87 | 1/18 (1.11) |
| S25E Y31G S33W W56D | -0.09 -0.51 -0.34 -0.37 -0.38 -0.12 | 0/18 |
| K36V W56G E61D | n.d. 0.46 0.99 n.d. 1.34 n.d. | 0/18 |
| S25L S26P S28G W56N T59V | 0.11 0.07 0.12 -0.11 -0.08 0.12 | 1/18 (3.59) |
| S26P Q27W R34N W56H S62D | 0.39 0.49 0.41 0.27 0.08 0.38 | 3/18 (2.27) |
| S25Q W56E S103D | 1.77 1.45 n.d. 0.52 0.11 1.41 | 0/18 |
| K24N S25L V29A W56G A57G S58N | 0.49 0.53 0.65 0.53 0.56 0.38 | 0/18 |
| S25L S26R V29T S38E W56N | 0.76 0.47 0.48 0.51 0.42 0.71 | 2/18 (2.69) |
| S26D S28G V29D W56G | -0.09 -0.21 -0.19 -0.41 -0.37 -0.13 | 1/18 (3.38) |
| S25V S26A V29W Y31M W56E E61Q | 0.26 0.40 0.28 0.41 1.45 0.23 | 0/18 |
| S25V S26L Q27W R34N W56H S62P | 0.46 0.37 0.31 0.22 0.60 0.50 | 1/18 (2.30) |
| Q27I V29W Y31E W56E | 0.11 -0.57 -0.64 -0.40 -0.98 -0.76 | 1/18 (1.91) |
| Q27I V29H K36T W56E | 0.50 0.43 0.21 0.25 0.15 0.41 | 0/18 |
| Q27P S28V R34E W56N E61M | 0.56 0.46 0.75 0.19 0.14 0.43 | 0/18 |
| Q27P R34H N35Q W56N E61M | 0.10 -0.08 -0.23 -0.37 -0.08 0.13 | 2/18 (4.36) |
| S28Q V29W W56G T59H | 0.38 0.25 0.20 0.51 0.13 0.41 | 0/18 |
| S25L S26R Q27M V29Q W56N | -0.40 -0.64 -0.68 -0.63 -0.45 -0.44 | 0/18 |
| S26L S28D V29W W56H S62Q | n.d. 4.19 n.d. n.d. n.d. n.d. | 0/18 |
| S26L V29W W56H S62Q S103M | 2.09 0.83 0.91 1.04 1.17 1.58 | 0/18 |
| S25L S26Q Q27N V29T N35Q | 0.88 0.92 1.16 0.85 0.69 1.20 | 2/18 (2.76) |
| S25V V29W Y31M W56E E61W | 1.32 1.12 0.22 0.44 0.18 1.15 | 0/18 |
| S25L S26G S28G E32Q W56G | -0.40 -0.30 -0.33 -0.29 -0.51 -0.21 | 0/18 |
| S25Q Y31M K36W W56D | 0.41 0.27 0.37 0.26 0.40 0.58 | 0/18 |
| Q27I Y31E W56E | -0.29 0.09 -0.30 -0.35 -0.22 -0.15 | 0/18 |

For reference, 6 entries of the list once more:

| changes | log10 Kd, replicates | empty controls |
|---|---|---|
| K36V W56G E61D | n.d. 0.46 0.99 n.d. 1.34 n.d. | 0/18 |
| S25L S26R Q27M V29Q W56N | -0.40 -0.64 -0.68 -0.63 -0.45 -0.44 | 0/18 |
| S25E S26F Y31F W56D | 0.57 -0.72 -0.71 -1.05 -1.00 -0.36 | 0/18 |
| S25L S26Q Q27N V29T N35Q | 0.88 0.92 1.16 0.85 0.69 1.20 | 2/18 (2.76) |
| S25V V29W Y31M W56E E61I | 0.60 0.48 0.36 0.14 0.22 0.17 | 1/18 (1.98) |
| S25L V29E E32D W56N | 0.64 0.35 0.17 0.27 0.20 0.60 | 0/18 |